# Antibody variant affinities, Ab-14 heavy chain, assay 1

From the AlphaSeq antibody data of Engelhart et al. 2022 (doi:10.1038/s41597-022-01779-4), copy in the FLAb collection.

The target is the same throughout: PDVDLGDISGINAS, from the HR2 region of SARS-CoV-2 spike.

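The library (AAYL49) carries one to three amino acid substitutions per variant, with no insertions or deletions. The scFvs were displayed on barcoded MATa yeast, the peptide on MATalpha yeast. Mating (16 h, 30 °C) was followed by selection of diploids and sequencing of their barcodes. Read counts were normalised to the haploid input and turned into Kd by a linear fit to BCL2-family pairs of known affinity, for each replicate. Mating was done three times.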

Parent scFv Ab-14: VH joined to VL by the linker GGGGSGGGGSGGGGS. Changes lie in the heavy chain CDRs alone.
VH: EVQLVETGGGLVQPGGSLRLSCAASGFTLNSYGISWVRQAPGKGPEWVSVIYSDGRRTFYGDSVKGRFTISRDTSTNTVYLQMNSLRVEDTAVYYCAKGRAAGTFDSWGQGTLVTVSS
VL: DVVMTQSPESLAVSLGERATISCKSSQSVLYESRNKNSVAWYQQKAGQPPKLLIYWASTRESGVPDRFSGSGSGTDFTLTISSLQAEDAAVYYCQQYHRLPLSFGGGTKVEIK

Substitutions are numbered in sequence along the VH above, starting at 1 (not Kabat).
All variants listed here change A102 of the VH, counted from its first residue.
Values are apparent Kd, the geometric mean of the replicates that gave a signal; lower means stronger binding.
"no signal" means that the variant was in the library but no mating with the target was seen in any replicate; the authors take this as a sign of poor binding, and no number exists.
Nonspecific signal, from three strains lacking the peptide, appeared in 15% of pairings of library AAYL49, centred on 11 µM (5% of these signals below 680 nM); values are not corrected for it. The control count says in how many pairings with the empty strains this scFv gave a signal.

changes	apparent Kd	seen in	control signals
G61I+V64F+A102T	no signal	0 of 3	3 of 9
V50K+R56H+A102G	130 µM	1 of 3	1 of 9
G61Q+V64Y+A102E	68 µM	2 of 3	2 of 9
R57I+A102I	no signal	0 of 3	0 of 9
F59V+A102R	no signal	0 of 3	0 of 9
Y32K+G55M+A102I	no signal	0 of 3	0 of 9
G33K+A102L+F105E	no signal	0 of 3	0 of 9
F27P+Y60H+A102G	21 µM	1 of 3	2 of 9
L29G+Y52L+A102L	2.6 µM	1 of 3	1 of 9
D54V+Y60G+A102L	2.0 µM	1 of 3	0 of 9
V50L+A102D+S107A	430 nM	1 of 3	0 of 9
V50C+K65V+A102E	no signal	0 of 3	1 of 9
A101Q+A102F+S107H	no signal	0 of 3	0 of 9
Y52E+A102F+T104R	no signal	0 of 3	2 of 9
S35N+K65H+A102L	120 µM	1 of 3	2 of 9
N30R+G55I+A102C	no signal	0 of 3	1 of 9
D54C+R57K+A102P	no signal	0 of 3	2 of 9
I51Y+A102V+D106H	no signal	0 of 3	0 of 9
K65M+A102L+T104Q	15 µM	3 of 3	5 of 9
F59I+A102S+T104H	no signal	0 of 3	0 of 9
G33K+I34K+A102Y	no signal	0 of 3	0 of 9
T58K+R100Y+A102I	1.8 µM	2 of 3	1 of 9
Y52L+T58A+A102K	no signal	0 of 3	3 of 9
S35E+A102W+S107K	1.3 µM	1 of 3	1 of 9
T28Q+G55M+A102W	no signal	0 of 3	0 of 9
G26C+I34N+A102K	6.1 µM	2 of 3	5 of 9
F27G+S35D+A102F	20 µM	2 of 3	5 of 9
Y60T+R100W+A102D	8.9 µM	1 of 3	0 of 9
Y60C+A102C	1.2 µM	1 of 3	0 of 9
D54F+A102P+G103T	76 µM	1 of 3	0 of 9
R56W+G61A+A102T	14 µM	2 of 3	1 of 9
I51Y+Y52W+A102C	1.6 µM	1 of 3	2 of 9
G26K+R100D+A102H	no signal	0 of 3	1 of 9
A102E	no signal	0 of 3	0 of 9
F27H+A102K	3.4 nM	3 of 3	2 of 9
Y32L+A102N+S107A	30 nM	3 of 3	1 of 9
T28D+I34V+A102H	7.2 nM	3 of 3	1 of 9
R57C+D62S+A102G	no signal	0 of 3	3 of 9
A102Q+F105A	no signal	0 of 3	0 of 9
T28E+F59H+A102T	no signal	0 of 3	2 of 9
S63P+R100T+A102D	16 µM	1 of 3	2 of 9
Y52H+D54N+A102E	6.0 µM	2 of 3	1 of 9
Y52F+R100S+A102Y	no signal	0 of 3	0 of 9
N30V+A102L	100 nM	2 of 3	0 of 9
G26M+Y52C+A102Q	no signal	0 of 3	0 of 9
S53H+A102P	52 nM	3 of 3	3 of 9
I34P+A102L+F105K	22 µM	1 of 3	3 of 9
F27D+T28S+A102S	no signal	0 of 3	1 of 9
G55N+A102H+T104W	1.5 µM	1 of 3	2 of 9
R56C+A102Q	350 nM	3 of 3	3 of 9
F27S+G61A+A102P	19 nM	3 of 3	1 of 9
T58P+A102F	no signal	0 of 3	0 of 9

The closing 4 entries, repeated:

changes	apparent Kd	seen in	control signals
G55N+A102H+T104W	1.5 µM	1 of 3	2 of 9
R56C+A102Q	350 nM	3 of 3	3 of 9
F27S+G61A+A102P	19 nM	3 of 3	1 of 9
T58P+A102F	no signal	0 of 3	0 of 9